Literature values, collected in US10874626B2, “Formulation for use in a method of treatment of pain” (NEVAKAR Inc., priority 2016, dated 2020).

Settings: oral, cited from earlier work

## 1-(aminomethyl) cyclohexane acetic acid [Gabapentin]
900 mg/day given in 3 divided doses
  bioavailability of gabapentin: approximately 60%
1200 mg/day given in 3 divided doses
  bioavailability of gabapentin: ~47%
3 divided doses, fourth of four values printed for five doses (3600 or 4800 mg/day)
  bioavailability of gabapentin: ~27%
3 divided doses, third of four values printed for five doses (2400 or 3600 mg/day)
  bioavailability of gabapentin: ~33%

Where two headings read alike, the source gives them in different places.
